Results: patent publication US20050004163A1, “3-(diarylmethylene)-8-azabicyclo[3.2.1]octane derivatives” (priority 2000, published 2005)

By UniProt entry, the sequences of proteins in these tests, tags left out.
UniProt P33535, whole entry: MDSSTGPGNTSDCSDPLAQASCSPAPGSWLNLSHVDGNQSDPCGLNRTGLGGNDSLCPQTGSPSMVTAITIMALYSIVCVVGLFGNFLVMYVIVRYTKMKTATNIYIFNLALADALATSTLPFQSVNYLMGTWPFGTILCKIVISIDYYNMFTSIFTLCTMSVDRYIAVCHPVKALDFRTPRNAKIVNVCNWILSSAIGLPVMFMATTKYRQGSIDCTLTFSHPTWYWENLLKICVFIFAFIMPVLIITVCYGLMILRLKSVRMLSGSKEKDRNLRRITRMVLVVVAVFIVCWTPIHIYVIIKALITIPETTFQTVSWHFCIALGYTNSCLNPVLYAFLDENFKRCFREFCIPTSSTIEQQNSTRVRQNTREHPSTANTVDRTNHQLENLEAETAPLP

How the values were obtained:
μ-opioid receptor = μ-opioid receptor (Rattus norvegicus, UniProt P33535); assay: Rat brain μ-opioid receptor binding assay ([3H]DAMGO); settings: read-out: MOR binding Ki, 10 nM solutions of the compounds
δ-opioid receptor = δ-opioid receptor (Rattus norvegicus, UniProt P33533); assay: Rat brain δ-opioid receptor binding assay ([3H]DPDPE); settings: read-out: DOR binding Ki, 10 nM solutions of the compounds

Row | Structure (SMILES) | Ki (μ-opioid receptor) [nM] | Ki (δ-opioid receptor) [nM]
1 | CCNC(=O)c1ccc(C(=C2CC3CCC(C2)N3Cc2ccc3ccccc3n2)c2cccc(N)c2)cc1 | 34.4 | 3.89
2 | CCNC(=O)c1ccc(C(=C2CC3CCC(C2)N3Cc2ccc3ccccc3n2)c2c(C)cccc2C)cc1 | 12.5 | 44.9
3 | CCNC(=O)c1ccc(C(=C2CC3CCC(C2)N3Cc2nccs2)c2ccc(C(=O)N(C)C)cc2)cc1 | 254 | 0.19
4 | CCNC(=O)c1ccc(C(=C2CC3CCC(C2)N3Cc2ccco2)c2ccc(C(=O)N(C)C)cc2)cc1 | 56.9 | 4.46
5 | CCNC(=O)c1ccc(C(=C2CC3CCC(C2)N3CC=C(C)C)c2ccc(C(=O)N(C)C)cc2)cc1 | 11 | 1.98
6 | CCNC(=O)c1ccc(C(=C2CC3CCC(C2)N3CCc2ccccc2)c2ccc(C(=O)N(C)C)cc2)cc1 | 35.3 | 0.96
7 | CCNC(=O)c1ccc(C(=C2CC3CCC(C2)N3Cc2csc([N+](=O)[O-])c2)c2cccc(NC(C)=O)c2)cc1 | 22.7 | 5.92
8 | CCNC(=O)c1ccc(C(=C2CC3CCC(C2)N3Cc2ccoc2)c2ccc(C(=O)N(C)C)cc2)cc1 | 6.7 | 4.57
9 | CCNC(=O)c1ccc(C(=C2CC3CCC(C2)N3Cc2cccs2)c2ccc(C(=O)N(C)C)cc2)cc1 | 6.69 | 0.45
10 | CCNC(=O)c1ccc(C(=C2CC3CCC(C2)N3Cc2ccsc2)c2ccc(C(=O)N(C)C)cc2)cc1 | 70.4 | 2.62
